# Experimental data: paper PMC4076210, “Discovery of Novel AKT Inhibitors with Enhanced Anti-Tumor Effects in Combination with the MEK Inhibitor” (PLoS ONE, 2014)
# “And” between values parts separate entries of the source, which are not always exact repeats. Identical values can stand only once.
# Test: Compound concentration in blood and tumor (HPLC/MS/MS)
# Type: in vivo, mouse
# Method: Protein lysates were analyzed by phospho-PRAS40 ELISA according to the methods described above. Concentration of the test compounds in the tissue and blood was analyzed using protein precipitation with acetonitrile, followed by HPLC/MS/MS analysis using positive ion atmospheric pressure chemical ionization or Turbo ionspray ionization (API 4000 or API 5000, Applied Biosystems). The lower level of detection of compound was 10 ng/mL and the assays were linear over a 100- to a 1000-fold drug concentration range.
# The pharmacodynamic studies were carried out in SCID mice bearing BT474 tumor xenografts. […] Protein lysates were prepared and the phospho-PRAS40 ELISA was performed on tumor samples according to the methods described in the main text. Concentration of the test compounds was analysed by HPLC/MS/MS analysis.
smiles,measurement,setting,value
Cn1ncc(Cl)c1-c1cc(C(=O)N[C@H](CN)Cc2cccc(F)c2)sc1Cl [GSK2110183],blood concentrations resulting in 60% inhibition of phospho-PRAS40,"100 mg/kg QDx7, time course",3000 to 4000 nM
same,concentration at 2 h,"SCID, mouse, whole blood, 100 mg/kg QDx7 oral, 2 h post last dose, read-out: circulating (blood) concentration",~3 µM and ~1500 ng/mL
